The entries are a selection whose mix differs from that of the whole data set. Active and inactive are the calls of the source.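 The calls were made as follows: active = inhibition above the screen-wide mean plus 3 SD, limit set per campaign (cut at about 26% in these data); inactive = the rest.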
Each compound was assayed against Acyl-protein thioesterase 2 (Homo sapiens) (UniProt O95372) (assay: inhibition of human lysophospholipase 2 – biochemical, fluorescence polarization, FP-Rh probe ABPP, counter-screen for PME1 inhibitor project, primary screen (AID 2177;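 also: 0% = LYPLA2 with DMSO and 100% = wells lacking LYPLA2 enzyme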)). Details: recombinant LYPLA2, FP-Rh probe fluorescence polarization; at 5.9 µM; stronger effect = higher value.

By UniProt entry, the sequences of proteins in these tests, tags left out. Where a name states a change or a piece, a line headed by the entry shows the natural chain unless it says otherwise.
UniProt O95372: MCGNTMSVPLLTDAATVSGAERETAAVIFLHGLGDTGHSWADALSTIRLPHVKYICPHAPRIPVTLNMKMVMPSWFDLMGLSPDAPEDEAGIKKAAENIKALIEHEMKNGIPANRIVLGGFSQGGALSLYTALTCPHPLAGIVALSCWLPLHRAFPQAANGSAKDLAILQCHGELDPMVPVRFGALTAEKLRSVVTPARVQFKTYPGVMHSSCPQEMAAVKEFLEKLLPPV

SMILES | inhibition
COc1ccc(N/C(=N/P(=O)(N2CCOCC2)N2CCOCC2)N2CCOCC2)cc1 | inactive: 4.17%
COc1ccc2nc(NP(=O)(c3ccccc3)c3ccccc3)sc2c1 | inactive: -4.18%
COc1cc(I)ccc1[As](=O)(O)O | inactive: -2.12%
Cc1c2c(nc3ccccc13)SC(C(Cl)Cl)C2 (stereo unspecified) | inactive: -2.6%
O=C(OC1CN2CCC1CC2)C12CC3CC(CC(C3)C1)C2 (stereo unspecified) | inactive: 2.55%
Cc1cc(=O)[nH]c(N[N+](=O)[O-])n1 | inactive: 2.08%
CC(C)NC(=O)NP(=O)(Oc1ccccc1)Oc1ccccc1 | inactive: 0.54%
CCN(CC)C(=S)SC(NC=O)C(Cl)(Cl)Cl (stereo unspecified) | inactive: 0.18%
O=[N+]([O-])c1cc([N+](=O)[O-])c(-c2ccn[nH]2)s1 | inactive: -1.56%
ClCCSc1nnc(-c2cccnc2)o1 | inactive: 4.79%
CC(C)c1ccc(OP(=O)(Nc2ccccn2)Oc2ccccc2F)cc1 (stereo unspecified) | inactive: 1.18%
Cc1ccc(OP(=O)(Nc2ccc([N+](=O)[O-])cn2)Oc2ccc(C)cc2)cc1 | inactive: 6.49%
Cc1ccc2nc3c(c(C)c2c1)CC(C(Cl)Cl)S3 (stereo unspecified) | inactive: 0.57%
C[As](=O)(O)c1cccc(C(=O)O)c1 | inactive: 8.29%
O=[As](O)(c1ccc(O)cc1)c1ccccc1O | inactive: -1.05%
COc1cc(C(=O)NCC2(N3CCOCC3)CCCCC2)ccc1OCC(C)C | inactive: 7.79%
O=P(Nc1ccccn1)(c1cccc2ccccc12)c1cccc2ccccc12 | inactive: -2.08%
Cc1cc(SC(NC=O)C(Cl)(Cl)Cl)ncn1 (stereo unspecified) | inactive: -1.77%
CCOC(=O)Nc1cccc([As](=O)(O)O)c1 | inactive: 5.97%
Cc1cc(SC(NC(=O)c2ccccc2)C(Cl)(Cl)Cl)nc(C(C)C)n1 (stereo unspecified) | inactive: -2.18%
CCOC(=O)Nc1ccc([As](=O)(O)O)c(O)c1 | inactive: 1.26%
CCC(C)N(CC(C)C)C(=S)SC(NC(C)=O)C(Cl)(Cl)Cl (stereo unspecified) | inactive: 5.53%
O=C(OC1CN2CCC1CC2)c1cccc([N+](=O)[O-])c1 (stereo unspecified) | inactive: -0.75%
CCOC(=O)c1ccc(NC(=O)C(C)(CCl)SC)cc1 (stereo unspecified) | inactive: -4.66%
O=C(COc1ccccc1)OC1CN2CCC1CC2 (stereo unspecified) | inactive: 0.79%
O=C(Nc1ccncc1[N+](=O)[O-])c1ccc([N+](=O)[O-])cc1[N+](=O)[O-] | inactive: 6.17%

SMILES | inhibition
COP1(=S)c2c(C)nn(CCC#N)c2N=C(c2ccc(F)cc2)N1C (stereo unspecified) | inactive: -0.59%
CC(C)/C=N\N=C(\N)N[N+](=O)[O-] | inactive: 2.63%
CN(C(=O)Cc1ccc(Cl)c(Cl)c1)[C@@H]1CCCC[C@H]1N1CCCC1 | inactive: -2.78%
O=[As](O)(c1ccccc1Br)c1ccccc1Br | inactive: -5.85%
CC1(CBr)Cn2c(nc3ccccc3c2=O)S1 (stereo unspecified) | inactive: 2.98%
COc1ccccc1CNC(=O)COC(=O)C(O)(c1ccccc1)c1ccccc1 | inactive: -0.89%
Clc1n[nH]nc1-c1nn[nH][15n]1 | inactive: -9.52%
CC(C)(C)C(=O)NC(Sc1ncccn1)C(Cl)(Cl)Cl (stereo unspecified) | inactive: 3.98%
O=P1(Nc2ccccn2)COc2ccccc2OC1 | inactive: 0.9%
CCC1=CC2Cc3nc4ccc(Cl)cc4c(N)c3C(C1)C2 (stereo unspecified) | inactive: -6.63%
CCOP(=O)(NC(=NC(C)c1ccccc1)NC(C)c1ccccc1)OCC (stereo unspecified) | inactive: -5.6%
CCOP(=O)(Nc1ccc(C)cn1)OCC | inactive: 2.86%
CN(CCCl)Cc1cc(Cl)c(NC2=NCCN2)c(Cl)c1 | inactive: -4.56%
Nc1cccc([As](=O)(O)c2ccccc2)c1 | inactive: -11%
O=[As](O)(c1cccs1)c1cccs1 | inactive: 0.91%
Cc1ccc(OCC(=O)OC2CN3CCC2CC3)cc1 (stereo unspecified) | inactive: 3.5%
O=P1(Nc2ccc(Br)cn2)COc2ccccc2OC1 | inactive: 5.72%
NS(=O)(=O)c1cccc(NC(=O)COC(=O)C(O)(c2ccccc2)c2ccccc2)c1 | inactive: -8.23%
O=P1(Nc2ncccn2)COc2ccccc2OC1 | inactive: -8.45%
CN(C)C1(CNC(=O)c2ccc(S(C)(=O)=O)cc2)CCCCC1 | inactive: 5.86%
O=C(/C=C/c1ccccc1)OC1CN2CCC1CC2 (stereo unspecified) | inactive: 5.94%
Cc1nn(-c2ccccc2)c2c1P(=O)(N1CCOCC1)N(C)C(c1ccccc1)=N2 (stereo unspecified) | inactive: 4.59%
CC1CCC(C(C)C)C(OP(=O)(Nc2ccccn2)c2ccccc2)C1 (stereo unspecified) | inactive: 5.78%
Cc1ccc(C(=O)OC2CN3CCC2CC3)cc1 (stereo unspecified) | inactive: 1.08%
N#CCCN(C(=O)COC(=O)C(O)(c1ccccc1)c1ccccc1)c1ccc(F)cc1 | inactive: -2.81%
CN(C(=O)Cc1ccccc1)[C@@H]1CC[C@]2(CCCO2)C[C@H]1N1CCCC1 | inactive: 7.14%

SMILES | inhibition
CCOP1(=S)c2c(C)nn(CCC#N)c2N=C(c2ccc(F)cc2)N1C (stereo unspecified) | inactive: -3.12%
O=[N+]([O-])c1ccc2c(c1)nnn2O | inactive: 0.81%
CN(C)C(=O)c1cc([N+](=O)[O-])cc2c1-c1c(cc([N+](=O)[O-])cc1[N+](=O)[O-])C2=O | inactive: 22.5%
CN(C(=O)Cc1ccc(Cl)c(Cl)c1)[C@H]1CC[C@@]2(CCCO2)C[C@@H]1N1CCCC1 | inactive: 2.49%
NC(=O)Nc1ccc([As](=O)(O)O)cc1 | inactive: 5.77%
Nc1ccccc1[As](=O)(O)c1ccccc1 | inactive: -5.34%
O=C(O)COc1ccc([As](=O)(O)O)cc1[N+](=O)[O-] | inactive: 2.63%
CCOP1(=S)c2c(C)nn(CCC#N)c2N=C(c2ccccc2F)N1C (stereo unspecified) | inactive: 6.83%
O=P(Nc1nccs1)(Oc1ccccc1)Oc1ccccc1 | inactive: -1.3%
O=P(Nc1nccs1)(c1ccccc1)c1nc2ccccc2s1 (stereo unspecified) | inactive: -4.69%
CS(=O)(=O)c1cc([N+](=O)[O-])c2no[n+]([O-])c2c1 | inactive: -3.73%
COc1cc(C2NCCC3(OCCO3)C2(C)C)cc(OC)c1OC (stereo unspecified) | inactive: -4.92%
CCOP(=O)(Nc1cccc2ccccc12)OCC | inactive: 2.26%
Nc1cccc2c([As](=O)(O)O)cccc12 | inactive: 20.6%
Cc1ccc(NCCc2c([N+](=O)[O-])cc([N+](=O)[O-])cc2[N+](=O)[O-])cc1 | inactive: 11.2%
CCCOP(=S)(Nc1nc(N)cc(=O)[nH]1)OCCC | inactive: -0.07%
Cc1cccc(OCC(=O)OC2CN3CCC2CC3)c1 (stereo unspecified) | inactive: 5.8%
O=[As](O)(c1cccc(O)c1)c1cccc(O)c1 | inactive: 4.88%
O=C(OC1CN2CCC1CC2)c1ccc(Cl)cc1 (stereo unspecified) | inactive: 1.69%
O=[As](O)(O)c1cccnc1 | inactive: 4.17%
COc1cc(C(=O)NCC2(N3CCOCC3)CCCCC2)cc(Cl)c1OC(C)C | inactive: 4.75%
CS(=O)(=O)c1ccc(Cl)c(NC(=O)COC(=O)C(O)(c2ccccc2)c2ccccc2)c1 | inactive: 1.02%
CC(=O)Nc1ccc([As](=O)(O)O)c(O)c1 | inactive: 0.71%
CC(=O)Nc1ccc(Oc2c([N+](=O)[O-])cc([N+](=O)[O-])cc2[N+](=O)[O-])cc1 | inactive: 2.46%
Cc1ccccc1CN(C)C(=O)COC(=O)C(O)(c1ccccc1)c1ccccc1 | inactive: 0.98%
C[C@H]1OP(=O)(Oc2ccccc2)C[C@@H]2O[C@@H]21 (stereo partly specified) | inactive: -0.79%

SMILES | inhibition
C[C@@H]1C=CCP(=O)(Oc2ccccc2)O1 (stereo partly specified) | inactive: 3.68%
CC(=O)c1ccc(N2CC2c2ccncc2)cc1 (stereo unspecified) | inactive: 5.78%
CC(C)(C)C(=O)NC(Sc1ccccc1)C(Cl)(Cl)Cl (stereo unspecified) | inactive: 6.56%
O=P1(Nc2nc3ccc(Cl)cc3s2)COc2ccccc2O1 (stereo unspecified) | inactive: -3.27%
CCOc1ccc(C2=NCC(CBr)S2)cc1 (stereo unspecified) | inactive: -2.95%
Cc1ccccc1OP(=O)(Nc1ccccn1)Oc1ccccc1C | inactive: 5.77%
CN(C)C(=O)Oc1noc2ccccc12 | inactive: -5.5%
O=C(OC1CN2CCC1CC2)c1ccccc1 (stereo unspecified) | inactive: -5.82%
CCC(=O)N1C2C3N(C(=O)CC)C1C1N(C(=O)CC)C(C(N1C(=O)CC)N3C(=O)CC)N2C(=O)CC | inactive: 3.16%
COC(=O)c1cc2c(s1)N=C(c1ccccc1)N(C)P2(=O)N1CCOCC1 (stereo unspecified) | inactive: 1.47%
Cc1ccc(OP(=O)(Nc2ccccn2)Oc2ccc(C)cc2)cc1 | inactive: -5.7%
CC(=O)NC(SC(=S)N(CC(C)C)CC(C)C)C(Cl)(Cl)Cl (stereo unspecified) | inactive: 8.65%
c1ccc(-c2nn[nH]n2)c(-c2nn[nH]n2)c1 | inactive: 1.54%
CCOC(=O)NC(Sc1ccccc1)C(Cl)(Cl)Cl (stereo unspecified) | inactive: 7.21%
Cc1ccc(NP(=O)(Oc2cccc(C)c2)Oc2cccc(C)c2)nc1 | inactive: -4.98%
CCNC(=S)/N=C(\N)N[N+](=O)[O-] | inactive: -0.4%
O=C(NC1CCS(=O)(=O)C1)NP(=S)(Oc1ccccc1)Oc1ccccc1 (stereo unspecified) | inactive: -0.91%
O=C(OC1CN2CCC1CC2)c1cccc(Cl)c1 (stereo unspecified) | inactive: 11.5%
C(Cc1nn[nH]n1)Cc1nn[nH]n1 | inactive: 1%
Nc1ccc([As](=O)(O)c2ccc([N+](=O)[O-])cc2)cc1 | inactive: 0.98%
O=[As](O)(c1ccccc1)c1ccc(O)cc1 | inactive: 0.31%
O=[N+]([O-])c1ccc(O)c(/C=N/Nc2ccc([N+](=O)[O-])cc2[N+](=O)[O-])c1 | inactive: 3.06%
O=[N+]([O-])c1ncn(CCn2cnc([N+](=O)[O-])n2)n1 | inactive: -2.23%
